# Experimental data: US20260382730A1, “SOS1 PROTEIN DEGRADATION AGENT AND USE THEREOF” (published 2026)
# Sequences of proteins named here, by UniProt entry; tags and fusion partners are left off. A change or cut given only in a name is not applied to a line headed by its entry.
# UniProt Q07889, whole entry: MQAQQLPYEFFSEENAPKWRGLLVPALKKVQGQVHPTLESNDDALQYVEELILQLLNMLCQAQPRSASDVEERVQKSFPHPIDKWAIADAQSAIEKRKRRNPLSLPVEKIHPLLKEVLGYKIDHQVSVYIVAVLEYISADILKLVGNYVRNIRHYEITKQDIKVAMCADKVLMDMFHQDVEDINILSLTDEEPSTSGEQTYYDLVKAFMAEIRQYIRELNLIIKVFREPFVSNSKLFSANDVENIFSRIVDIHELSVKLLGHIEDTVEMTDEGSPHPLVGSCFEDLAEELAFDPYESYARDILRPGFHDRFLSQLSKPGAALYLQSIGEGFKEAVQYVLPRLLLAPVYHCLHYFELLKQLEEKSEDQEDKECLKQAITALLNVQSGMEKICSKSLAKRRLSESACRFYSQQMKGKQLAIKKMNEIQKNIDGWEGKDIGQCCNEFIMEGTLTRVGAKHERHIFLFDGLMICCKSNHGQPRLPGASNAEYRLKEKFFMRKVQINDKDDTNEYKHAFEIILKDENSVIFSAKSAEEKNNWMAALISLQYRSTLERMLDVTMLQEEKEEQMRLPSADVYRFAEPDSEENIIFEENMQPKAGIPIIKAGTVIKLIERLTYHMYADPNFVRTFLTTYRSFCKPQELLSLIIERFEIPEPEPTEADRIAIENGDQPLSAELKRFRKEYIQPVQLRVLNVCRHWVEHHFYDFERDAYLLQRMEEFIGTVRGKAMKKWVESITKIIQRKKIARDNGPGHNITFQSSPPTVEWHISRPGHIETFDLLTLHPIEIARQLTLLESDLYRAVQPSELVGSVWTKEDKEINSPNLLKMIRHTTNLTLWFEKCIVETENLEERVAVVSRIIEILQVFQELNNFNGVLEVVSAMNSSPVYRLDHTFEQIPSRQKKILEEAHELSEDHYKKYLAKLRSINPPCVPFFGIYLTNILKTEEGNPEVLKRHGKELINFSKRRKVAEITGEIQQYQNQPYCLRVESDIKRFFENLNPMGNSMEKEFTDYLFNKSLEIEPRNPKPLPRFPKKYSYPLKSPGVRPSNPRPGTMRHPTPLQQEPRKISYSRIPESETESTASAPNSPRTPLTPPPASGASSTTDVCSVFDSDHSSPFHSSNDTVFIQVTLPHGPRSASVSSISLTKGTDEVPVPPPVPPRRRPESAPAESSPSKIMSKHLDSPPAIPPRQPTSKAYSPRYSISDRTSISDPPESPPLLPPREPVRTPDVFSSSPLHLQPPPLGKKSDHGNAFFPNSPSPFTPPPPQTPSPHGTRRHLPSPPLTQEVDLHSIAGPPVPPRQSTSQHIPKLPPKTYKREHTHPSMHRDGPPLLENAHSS
# How the values were obtained:
# KRAS-G12C/SOS1 = KRAS-G12C/SOS1 (Homo sapiens, UniProt Q07889); assay: KRAS-G12C/SOS1 binding assay (HTRF, competitive inhibition); details: read-out: KRAS G12C:SOS1 IC50, 10 μM GTP, 0.5% DMSO, 3 h under ice
# From the text: Test Example 1: KRAS-G12C/SOS1 Binding Assay
# The following method was used to determine the extent of inhibition of a KRAS-G12C/SOS1 binding by the preferred compound of the present invention under in vitro conditions. This method uses the KRAS-G12C/SOS1 Binding Assay Kit (Cisbio, 63ADK000CB16PEG) to determine the competitive inhibition of the KRAS-G12C/SOS1 binding by a homogeneous time-resolved fluorescence technique (HTRF) for the preferred compound.
# The experimental procedure was as follows (refer to the package insert of the kit for a detailed method): first the compound in the present invention was dissolved in DMSO at a concentration of 20 mM, and diluted with a buffer in the kit by isogradient dilution so that the final concentration of the test compound in the reaction system ranged from 10000 nM to 0.04 nM, and the final concentration of DMSO was 0.5%. 2 μL of the compound was incubated with 4 μL 1×Tag1-SOS1, 4 μL 1×Tag2-KRAS-G12C (containing 10 μM guanosine triphosphate, GTP) for 15 min at 25 °C, then 5 μL 1×Anti-Tag1-Tb3+ and 5 μL 1×Anti-Tag2-XL665 were added into the reaction system for incubation for 3 h under ice. After the incubation, the fluorescence intensity of each well at an excitation wavelength of 337 nm was measured in an HTRF mode on a microplate reader EnVision (PerkinElmer, 2105) and the fluorescence intensity of each well at emission wavelengths of 620 nm and 665 nm was read. The Raio value was calculated using a Formula Ratio=(665 nm/620 nm)×104. The inhibition rate of the compound at each concentration was calculated by comparing with the fluorescence intensity ratio of the control group, and then the IC50 value of the compound was obtained by nonlinear curve fitting with logarithmic concentration-inhibition rate using GraphPad Prism 8, as shown in Table 1.
# SOS1 protein = SOS1 protein (Homo sapiens, UniProt Q07889); assay: SOS1 degradation test (Western blot) in NCI-H358 cells; details: maximum SOS1 degradation, NCI-H358 (KRAS G12C) cells, 24 h, 37 °C
# Experimental: Test Example 2: SOS1 Degradation Test
# The degradation of SOS1 by the compound was investigated on KRAS G12C mutant human non-small cell lung cancer cells NCI-H358 (ATCC or Chinese Academy of Sciences stem cell bank), KRAS G12D mutant human lung cancer cells A-427, KRAS G12V mutant human colorectal adenocarcinoma cells SW-620 and KRAS G13D mutant human colorectal adenocarcinoma epithelial cells DLD-1 (ATCC). Specific methods were as follows:
# 0.95 mL of cells was paved in each well of the 24-well cell culture plate to make the cell density reach 5×10^5 cells/well; the cell plates were placed in a 5% CO2 incubator and culture at 37 °C overnight. Then 50 μL of a diluted compound solution was added to the corresponding wells paved with cells, so that the final concentration of the compound was in the range of 0.03-3000 nM. The final concentration of DMSO is 0.25%. The administered cell plates were cultured in a 5% CO2 incubator at 37 °C for 24 h. After being removed from the 24 wells, the cell culture solution was washed twice with 1×PBS. 180 μL of an RIPA (strong) lysing buffer (Beyotime, P0013B) was added to NCI-H358 cells attached to the bottom of the cell culture plate and supplemented with 1 mM benzyl sulfonyl fluoride, a protease inhibitor mixture (Beyotime, P1008) and a protease phosphatase inhibitor mixture (Beyont, P1045) for lysis. After standing on ice for 30 min, the protein lysis buffer in each well was transferred to a 1.5 mL centrifuge tube and centrifuged at 15000 g and 4 °C for 20 min. The centrifuged cell lysate supernatant was cryopreserved at −80 °C for testing and used to test the degradation level of the SOS1 protein by a WB method. The total protein concentration in the cell lysis supernatant was determined using a BCA Protein Assay Kit (Tiangen, PA115-02).
# The concentration of total protein in the cell lysate was determined by BCA, adjusted to 0.5 μg/μL with PBS and 5×SDS-PAGE protein loading buffer (Beyotime, P0015L), placed in a 100 °C water bath for 15 min, then placed in an ice bath on ice for 5 min, centrifuged at 14000 g and 4 °C for 1 min, mixed well as a loading sample of WB. Protein electrophoresis was performed with a precast gel (Kaigene, KGMG010W15), with a loading volume of 10 μL (total protein 5 μg). Constant voltage electrophoresis was carried out at 120 V for 55 min after Tris-MOPS-SDS electrophoresis solution (Adamas, P1598253). After electrophoresis, the protein on the gel strip was transferred to PVDF membrane at constant current 250 mA for 65 min. After transmembrane transfer, the membrane was incubated at room temperature for 30 min in 1×QuickBlock blocking buffer (Beyotime, P0235). After blocking, the PVDF membranes were incubated with an SOS1 primary antibody (Abcam, ab140621) overnight at 4 °C and washed with TBST buffer (2.4 g Tris, 8.8 g NaCl, 1.5 mL Tween 20, adjusted to pH 7.4, diluted to 1 L) for 30 min (10 min/time). The secondary antibody (Abcam, ab205718) was incubated at room temperature for 2 h, the membrane was washed with TBST buffer for 30 min (10 min/time), and finally incubated with Clarity Western ECL Substrate (BIO-RAD, 170-5061) for 5 min to develop luminescence. Chromogenesis and protein mapping were performed by chemiluminescence imaging system (Qixiang, ChemiScope 6200 Touch). The protein chromatogram was analyzed for gray value by Qinxiang chemiluminescence analysis software. The following formula is used: gray level correction value=(target protein gray level value/corresponding internal reference gray level value)×103 to calculate the gray level correction value of each sample. Then the degradation rate was calculated by comparing with the gray level correction value of the control group. Further, the DC50 and Dmax values of the compound were obtained by non-linear curve fitting with logarithmic concentration versus inhibition ratio through GraphPad Prism 8.
Compound,IC50 (KRAS-G12C/SOS1) [nM],NCI-H358 (G12C) Dmax (SOS1 protein)
Cc1ccc(C(=O)N2CCC3(CCC(CCN4CCC(C(=O)N5CCN(c6cc7c(N[C@H](C)c8cccc(C#N)c8C)nnc(C)c7cn6)CC5)CC4)CC3)CC2)cc1N1CCC(=O)NC1=O,30 to 50,A (80≤Dmax(%)≤100)
COc1ccc(C(=O)N2CCC3(CCC(CN4CCC(C(=O)N5CCN(c6cc7c(N[C@H](C)c8cccc(C#N)c8C)nnc(C)c7cn6)CC5)CC4)CC3)CC2)cc1N1CCC(=O)NC1=O,100 to 1000,A (80≤Dmax(%)≤100)
Cc1c(C#N)cccc1[C@@H](C)Nc1nnc(C)c2cnc([C@H]3CC[C@@H](C(=O)N4CCC(CCOCC5CCN(C(=O)c6ccc(Cl)c(N7CCC(=O)NC7=O)c6)CC5)CC4)CC3)cc12,100 to 1000,D (Dmax(%)<30)
Cc1c(C#N)cccc1[C@@H](C)Nc1nnc(C)c2cnc(N3CCN(C(=O)C4CCN(CCCCC5CCN(C(=O)c6ccc(Cl)c(N7CCC(=O)NC7=O)c6)CC5)CC4)CC3)cc12,15 to 30,A (80≤Dmax(%)≤100)

# The remaining lines, values ahead:
IC50 (KRAS-G12C/SOS1) [nM],NCI-H358 (G12C) Dmax (SOS1 protein),Compound
15 to 30,A (80≤Dmax(%)≤100),Cc1ccc(C(=O)N2CCC3(CCC(CN4CCC(C(=O)N5CCN(c6cc7c(N[C@H](C)c8cccc(C(F)F)c8C)nnc(C)c7cn6)CC5)CC4)CC3)CC2)cc1N1CCC(=O)NC1=O
15 to 30,A (80≤Dmax(%)≤100),Cc1c(C#N)cccc1[C@@H](C)Nc1nnc(C)c2cnc(N3CCN(C(=O)C4CCN(CC5CCC6(CC5)CCN(C(=O)c5ccc(Cl)c(N7CCC(=O)NC7=O)c5)CC6)CC4)CC3)cc12
< 15,A (80≤Dmax(%)≤100),Cc1ccc(C(=O)N2CCC3(CCC(CN4CCC(C(=O)N5CCN(c6cc7c(N[C@H](C)c8cccc(C#N)c8C)nnc(C)c7cn6)CC5)CC4)CC3)CC2)cc1N1CCC(=O)NC1=O
< 15,B (50≤Dmax(%)<80),Cc1ccc(C(=O)N2CCC3(CCC(CN4CCN(C(=O)[C@H]5CC[C@H](c6cc7c(N[C@H](C)c8cccc9c8CCS9(=O)=O)nnc(C)c7cn6)CC5)CC4)CC3)CC2)cc1N1CCC(=O)NC1=O
